Measured values: article PMC3861454, “Structures of Wnt-Antagonist ZNRF3 and Its Complex with R-Spondin 1 and Implications for Signaling” (PLoS ONE, 2013)

Protein sequences, listed by entry. Tags and fused reporters are not part of them. Residues count along the entry.
UniProt Q5SSZ7, 53-216: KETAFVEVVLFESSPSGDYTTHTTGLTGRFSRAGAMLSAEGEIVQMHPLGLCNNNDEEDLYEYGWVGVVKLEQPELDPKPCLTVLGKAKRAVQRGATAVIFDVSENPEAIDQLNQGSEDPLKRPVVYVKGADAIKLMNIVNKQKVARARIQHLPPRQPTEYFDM

Biological target: ZNRF3 ectodomain with C-terminal biotin acceptor peptide (C-BAP) tag, biotinylated in vivo (mouse) (UniProt Q5SSZ7)
Assay: SPR; IBIS MX96; biotinylated ZNRF3 immobilised on a G-streptavidin sensor chip at different ligand densities; analytes flowed in 25 mM HEPES pH 8.0, 150 mM NaCl, 25 °C; equilibrium dose-response, global fit to a 1:1 binding model

## LGR5-RSPO1 complex (LGR5 ectodomain with RSPO1 furin-like domains) (from UniProt O75473 22-907; Q2MKA7 31-146)
  Kd: 2500 nM
